Ab-14 heavy chain CDR variants: yeast mating affinities

The measurements come from Engelhart et al. 2022 (doi:10.1038/s41597-022-01779-4) through the FLAb antibody collection.

Target peptide (SARS-CoV-2 spike, HR2 region): PDVDLGDISGINAS

Parent: Ab-14, a human scFv built as VH, a (GGGGS)3 linker, VL. Only the CDRs of the heavy chain vary.
VH: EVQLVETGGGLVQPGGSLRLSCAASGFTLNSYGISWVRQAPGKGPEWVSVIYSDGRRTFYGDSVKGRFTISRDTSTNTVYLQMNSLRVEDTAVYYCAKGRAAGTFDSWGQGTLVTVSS
VL: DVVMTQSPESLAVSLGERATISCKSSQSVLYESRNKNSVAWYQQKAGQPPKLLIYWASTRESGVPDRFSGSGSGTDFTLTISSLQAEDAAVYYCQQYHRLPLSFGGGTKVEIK

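Library AAYL49 holds single substitutions and randomly drawn double and triple substitutions in the CDRs. The assay is AlphaSeq: two haploid yeast populations carry antibody and antigen on their surface. Binding brings cells together so that they mate, and sequencing counts the barcode pairs among the diploids. Read counts were normalised to the haploid input and turned into Kd by a linear fit to BCL2-family pairs of known affinity, for each replicate. Mating was done three times.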

Variants are written as CDR1, CDR2 and CDR3 of the heavy chain (limits as in the source). Parent: GFTLNSYGIS, VIYSDGRRTFYGDSVK, GRAAGTFDS.
Scale: log10 of Kd in nM, estimated from mating counts; low values are strong binders.
"ND" marks a missing value. The strain was present, yet no cells mated with the target were sequenced in that replicate, which points to weak or no binding.
For reference, the parent read 0.65 as the reference entry and 4.11 (one replicate of three) as a member of this library.

The variant GFTLNSYEIS | VQYSDGRRTFYGDSVK | GRAAGWFDS showed ND, 2.71, 3.34 (controls 1 of 9).
The variant GFTLNSYYIS | VIYSPGRRTFYMDSVK | GRAAGTFDS showed ND, ND, ND (controls 0 of 9).
The variant GFTLNSYGES | VYYSDGRRSFYGDSVK | GRAAGTFDS showed ND, ND, ND (controls 0 of 9).
The variant GFTLNSYGIS | VIYSDGRRTFYVDSVK | GRPAGTFDS showed 2.30, 2.56, 2.13 (controls 2 of 9).
The variant GFTLNSYGIS | VQYSDLRRTFYGDRVK | GRAAGTFDS showed ND, 3.48, 4.28 (controls 2 of 9).
The variant LCTLNSQGIS | VIYSDGRRTFYGDSVK | GRAAGTFDS showed ND, ND, ND (controls 0 of 9).
The variant GFTYNSYGIS | VIYSDGRRTFYGDSVK | GRAAGTFDS showed 0.59, 1.01, 0.89 (controls 1 of 9).
The variant GFTLNSYGIK | VDYSDGRRTFYGDSVK | DRAAGTFDS showed ND, ND, ND (controls 3 of 9).
The variant GFTWNSYGIS | VIYSKGRRTFYGDSVK | GRAAGDFDS showed 3.65, 2.49, ND (controls 2 of 9).
The variant GFTLGSYGIL | VIYSDGRRTFYGDSVK | GRAAGPFDS showed ND, ND, ND (controls 0 of 9).
The variant NFTYNSYGIS | VIYSDGRRTFYGDSVK | GRAAGTFDS showed ND, 3.67, ND (controls 2 of 9).
The variant GFTLNSYGIS | VIYSDGRRAFYGDSVK | GYAAGTFDS showed 1.36, 1.51, 1.56 (controls 1 of 9).
The variant GFTLNSYGIS | DIYSDGRRTVYYDSVK | GRAAGTFDS showed ND, ND, ND (controls 0 of 9).
The variant GFTLNSYGIS | VIYSDGRRTFTADSVD | GRAAGTFDS showed 2.97, 2.40, 2.77 (controls 5 of 9).
The variant GFTLNSYGYS | VIYSDGRRTFYGDSVK | VRAFGTFDS showed ND, 3.67, ND (controls 3 of 9).
The variant GFTLNSYGIE | VKYSDGRQTFYGDSVK | GRAAGTFDS showed ND, ND, ND (controls 1 of 9).
The variant GFTLNSYGIS | VIYSYGRRTFYGDSVK | GRAAGTFDS showed ND, ND, ND (controls 0 of 9).
The variant GFTLNSYGIS | VIYRDGRRTFYGDSAK | GRAAGTFCS showed ND, ND, ND (controls 1 of 9).
The variant GFTLNSYGIS | VIYLDGRRTFKGDSVK | GRALGTFDS showed ND, ND, 4.83 (controls 1 of 9).
The variant GFTLNSYGIS | VIYSMGRRPFYGDSVK | GRAAGTFDS showed ND, ND, ND (controls 0 of 9).
The variant GFTINSYGIS | VIYSDGRRTFYFDSVK | GRAAGTFHS showed 4.33, 3.98, ND (controls 3 of 9).
The variant GFTLNSYGID | VIYYDGRRTFYGDSVK | GRAAGTFDS showed ND, ND, ND (controls 4 of 9).
The variant GFTLNSYGIS | VIYSDGRRTFYGDPVK | GQAACTFDS showed ND, ND, ND (controls 0 of 9).
The variant GVTLNSYGIS | VIYSDGRRTFYGDIVK | GRMAGTFDS showed ND, ND, ND (controls 0 of 9).
The variant GFTLNSYGIS | VIYSDGRRTFYGDSVK | LRAAGCFDS showed 1.30, 1.50, 1.62 (controls 0 of 9).
The variant EFTLNCYGIS | VIYSDGRRTFYGDSVK | GRALGTFDS showed ND, ND, ND (controls 1 of 9).
The variant GFTLNSYGIS | VIYSDVHRTFYGDSVK | GRAAGTFDS showed ND, 3.18, ND (controls 1 of 9).
The variant GFWWNSYGIS | VIYSDGRRTFYGDSVK | GRAAGTFFS showed ND, ND, ND (controls 1 of 9).
The variant GFTLNWYGIS | VIYSDKRRTFYGDSVK | GRAAGTFDS showed ND, ND, ND (controls 5 of 9).
The variant GFTLNSYGIS | VIYSDFLRTAYGDSVK | GRAAGTFDS showed 6.49, 4.22, 4.77 (controls 4 of 9).
The variant GFTLNPYGIS | VIYSDGRRTFYGDSVL | GRAAGTFDS showed ND, ND, 4.03 (controls 0 of 9).
The variant GFTLNVYGIS | VEYSDGRRTFYGTSVK | GRAAGTFDS showed ND, 5.06, ND (controls 2 of 9).
The variant GFTLNSYGIS | VIYMFGRRTFYGTSVK | GRAAGTFDS showed ND, ND, ND (controls 0 of 9).
The variant TFTLNSYGIT | VIYSDGRRFFYGDSVK | GRAAGTFDS showed ND, ND, ND (controls 0 of 9).
The variant GFTLNSYEIS | VIYSDGRYYFYGDSVK | GRAAGTFDS showed ND, 3.93, 4.94 (controls 3 of 9).
The variant GFTLYSYGIS | VIYSDGRRTFYGVSVK | GRAAGPFDS showed ND, ND, 4.54 (controls 4 of 9).
The variant GFTLNSYGIS | VIYSDGRRTFYFDRVK | GRAAGTFDF showed ND, ND, ND (controls 0 of 9).
The variant GFTLNSMGIS | WIYSDGRRTFYGDSNK | GRAAGTFDS showed ND, ND, 6.10 (controls 4 of 9).
The variant GCTLNSYGIQ | VIYSDGRRTFYGDSVK | GRAAGTVDS showed ND, ND, ND (controls 0 of 9).
The variant GFTLNSYGIS | VIYSDGRREAYGDSVK | GRAGGTFDS showed 0.47, 0.71, 0.66 (controls 1 of 9).
The variant GETLNSYGIS | VIYSDGFRTFPGDSVK | GRAAGTFDS showed ND, ND, ND (controls 1 of 9).
The variant GFTLNSYGIS | VIPSDGRRMFYGDSIK | GRAAGTFDS showed ND, ND, ND (controls 0 of 9).
The variant GFTLLSYGIS | VIMSDGRRTWYGDSVK | GRAAGTFDS showed ND, 3.37, ND (controls 2 of 9).
The variant GFTLNSYGIS | VIYSDGRRTFYMDSVK | GRAWGTFDY showed 1.18, 1.35, 1.96 (controls 0 of 9).
The variant GKTLNSYIIS | VIYSDGRRTFYGDSVK | GRAAGTFDD showed ND, ND, ND (controls 1 of 9).
The variant GFTANSYGIS | VIYSDGRRTFYGDSHK | GRDAGTFDS showed ND, ND, ND (controls 1 of 9).
The variant GFTLNSYGIS | VITSDGRRTFYTDSVK | GRAAGTFDS showed 5.96, ND, 5.85 (controls 2 of 9).
The variant GFTLNSIGIS | VIYSDGRRTFYGDSVK | GRAAGTFRS showed ND, ND, ND (controls 0 of 9).

The last 7 entries again:

{"CDR-H1": "GFTLNSYGIS", "CDR-H2": "VIPSDGRRMFYGDSIK", "CDR-H3": "GRAAGTFDS", "replicates, log10 nM": "ND, ND, ND", "signal with controls": "0/9"}
{"CDR-H1": "GFTLLSYGIS", "CDR-H2": "VIMSDGRRTWYGDSVK", "CDR-H3": "GRAAGTFDS", "replicates, log10 nM": "ND, 3.37, ND", "signal with controls": "2/9"}
{"CDR-H1": "GFTLNSYGIS", "CDR-H2": "VIYSDGRRTFYMDSVK", "CDR-H3": "GRAWGTFDY", "replicates, log10 nM": "1.18, 1.35, 1.96", "signal with controls": "0/9"}
{"CDR-H1": "GKTLNSYIIS", "CDR-H2": "VIYSDGRRTFYGDSVK", "CDR-H3": "GRAAGTFDD", "replicates, log10 nM": "ND, ND, ND", "signal with controls": "1/9"}
{"CDR-H1": "GFTANSYGIS", "CDR-H2": "VIYSDGRRTFYGDSHK", "CDR-H3": "GRDAGTFDS", "replicates, log10 nM": "ND, ND, ND", "signal with controls": "1/9"}
{"CDR-H1": "GFTLNSYGIS", "CDR-H2": "VITSDGRRTFYTDSVK", "CDR-H3": "GRAAGTFDS", "replicates, log10 nM": "5.96, ND, 5.85", "signal with controls": "2/9"}
{"CDR-H1": "GFTLNSIGIS", "CDR-H2": "VIYSDGRRTFYGDSVK", "CDR-H3": "GRAAGTFRS", "replicates, log10 nM": "ND, ND, ND", "signal with controls": "0/9"}

Three control strains display no target. For library AAYL49, 15% of the pairings with them gave a signal, with a median of 4.06 and one signal in twenty below 2.83, so weak values seen in few replicates may be background. Also given: how often the same scFv was detected with the empty control strains.